Reference: US7435386B2, “Reagentless and reusable biosensors with tunable differential binding affinities and methods of making” (dated 2008)

Experiments:
[1] = molecular target: P1-Bio3-MOD2-MBP95C-QSY7-Bio-X NTA (Escherichia coli, UniProt P0AEX9, D121C); test: Sensor sensitivity to different sugars, MOD2-modulated sensor; settings: response to 1 mM maltose defines 100%; for Δ FL 100 μM: 100 μM sugar; for Δ FL 1 mM: 1 mM sugar
[2] = molecular target: P1-Bio3-MBP95C-QSY7-Bio-X NTA (Escherichia coli, UniProt P0AEX9, D121C); test: Sensor sensitivity to different sugars, unmodulated sensor; settings: response to 1 mM maltose defines 100%; for Δ FL 100 μM: 100 μM sugar; for Δ FL 1 mM: 1 mM sugar
Native MBP = Native MBP (Escherichia coli, UniProt P0AEX9); settings: cited from earlier work
[3] = test system: AFF 532-labeled α-TNTscFv-Leu145Cys protein; test: TNT sensor titration with explosives (loss of FRET fluorescence at 600 nm); settings: specificity and cross-reactivity against TNT structural analogues

Compound	Δ FL 100 μM [1] [%]	Δ FL 1 mM [1] [%]	Δ FL 100 μM [2] [%]	Δ FL 1 mM [2] [%]	Kd (Native MBP) [nM]	sensor response in terms of absolute fluorescence change [3]
O=C[C@H](O)[C@@H](O)[C@@H](O)[C@H](O)CO	<1	<1	<1	<1		
β-Cyclodextrin	28	73	14	58	1800	
OC[C@H]1O[C@H](O[C@H]2[C@H](O)[C@@H](O)[C@H](O)O[C@@H]2CO)[C@H](O)[C@@H](O)[C@@H]1O	60	100	100	100		
O=C[C@@H](O)[C@H](O)[C@H](O)CO	<1	<1	<1	<1		
OC[C@H]1O[C@@](CO)(O[C@H]2O[C@H](CO)[C@@H](O)[C@H](O)[C@H]2O)[C@@H](O)[C@@H]1O	<1	<1	<1	<1		
Cc1c(N)cc([N+](=O)[O-])cc1[N+](=O)[O-]						significantly less response
O=C[C@H](O)[C@@H](O)[C@H](O)[C@H](O)CO	<1	<1	<1	<1		
OC[C@H]1O[C@@H](O[C@H]2[C@H](O)[C@@H](O)C(O)O[C@@H]2CO)[C@H](O)[C@@H](O)[C@H]1O (stereo partly drawn)	<1	<1	<1	<1		
